Assay results taken from paper PMC6694196, “Intrinsic tryptophan fluorescence spectroscopy reliably determines galectin-ligand interactions” (Scientific Reports, 2019).
Where “and” joins values, the source holds several entries; their conditions need not be identical. Equal values may be shown once.

Amino acid sequences for entries named in this document (tags omitted).
UniProt P17931, whole entry: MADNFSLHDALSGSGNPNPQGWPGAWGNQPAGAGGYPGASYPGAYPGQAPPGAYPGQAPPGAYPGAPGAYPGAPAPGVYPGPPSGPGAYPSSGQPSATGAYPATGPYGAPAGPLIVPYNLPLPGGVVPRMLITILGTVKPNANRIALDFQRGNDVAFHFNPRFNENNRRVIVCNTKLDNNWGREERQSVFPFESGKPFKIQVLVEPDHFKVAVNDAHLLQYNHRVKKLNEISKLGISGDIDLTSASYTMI

How the values were obtained:
galectin-3 [1] = target: T1, galectin-3 (Homo sapiens, UniProt P17931); test: Isothermal titration calorimetry (ITC) of galectin-3-ligand interaction; format: binding; conditions: galectin-3 100 µM, PBS, 25 °C, One set of sites model, mean ± SEM, n=3
T1 construct: full-length human galectin-3 (residues 1–250, UniProt code: P17931); His-tag (N, cleaved yes); made in house; host or cells: E. coli BL21(DE3)
Procedure: ITC experiments were performed at 25 °C using a MicroCal iTC200 microcalorimeter (Malvern Analytical Ltd, Malvern, UK) with 200 µl cell capacity and 40 µl injection syringe volume. […] Ligand-to-buffer and buffer-to-galectin titrations were performed as controls. Ligands were titrated in 19 injections of 2 µl aliquots with 120 s spacing between injections to allow baseline recovery. The ITC titration data were analysed using MicroCal Data Analysis for iTC200 which is an Origin 7.0-based software programme.

[2] = target: T2, galectin-4C (residues 153–323) (Homo sapiens, UniProt P56470); test: ITC of galectin-4C-ligand interaction; format: binding; conditions: galectin-4C 100 µM, PBS, 25 °C
T2 construct: C-terminal galectin-4 (galectin-4C, residues 153–323); His-tag (pET47b, HRV3C-cleavable) (cleaved yes); made in house; host or cells: E. coli BL21(DE3)
T2 sequence (P56470 153-323): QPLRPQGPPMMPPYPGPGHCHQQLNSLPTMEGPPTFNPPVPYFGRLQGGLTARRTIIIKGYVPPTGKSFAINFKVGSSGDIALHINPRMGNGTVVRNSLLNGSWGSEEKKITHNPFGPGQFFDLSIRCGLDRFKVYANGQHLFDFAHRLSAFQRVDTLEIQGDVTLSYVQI
Procedure: (§1) ITC experiments were performed at 25 °C using a MicroCal iTC200 microcalorimeter (Malvern Analytical Ltd, Malvern, UK) with 200 µl cell capacity and 40 µl injection syringe volume. All galectins were used at 100 µM in PBS and the binding ligands were prepared in identical buffers. LacNAc at 2 mM (for galectin-3), 20 mM (for galectin-2) or 100 mM (for full-length and truncated galectin-4); lactose at 30 mM (for galectin-2, -4 and truncated galectin-4) or 4 mM (for galectin-3); and galactose at 20 mM (for galectin-3) or 200 mM (for galectin-2, -4 and truncated galectin-4) were used in the binding titrations. F3 was titrated into galectin-3 at concentration of 20 mM. Ligand-to-buffer and buffer-to-galectin titrations were performed as controls. Ligands were titrated in 19 injections of 2 µl aliquots with 120 s spacing between injections to allow baseline recovery. The ITC titration data were analysed using MicroCal Data Analysis for iTC200 which is an Origin 7.0-based software programme. A curve fit using the ‘One set of sites’ interaction model was used to determine the association constant (KA), stoichiometry of binding (N) and enthalpy change (∆H) for all the interactions of simple sugars with the galectins except F3, where a logistic fit was used due to the nature of F3 as a mixture of heterogeneous polysaccharides.

galectin-4 [3] = target: T3, galectin-4 (Homo sapiens, UniProt P56470); test: TFS of galectin-4-ligand interaction; format: binding; conditions: full-length galectin-4 5 µM, PBS, 25 °C
T3 construct: full-length human galectin-4 (residues 1–323, UniProt code: P56470); 6xHis-SUMO (N, cleaved yes); made in house; host or cells: E. coli BL21(DE3)
T3 sequence (P56470 1-323): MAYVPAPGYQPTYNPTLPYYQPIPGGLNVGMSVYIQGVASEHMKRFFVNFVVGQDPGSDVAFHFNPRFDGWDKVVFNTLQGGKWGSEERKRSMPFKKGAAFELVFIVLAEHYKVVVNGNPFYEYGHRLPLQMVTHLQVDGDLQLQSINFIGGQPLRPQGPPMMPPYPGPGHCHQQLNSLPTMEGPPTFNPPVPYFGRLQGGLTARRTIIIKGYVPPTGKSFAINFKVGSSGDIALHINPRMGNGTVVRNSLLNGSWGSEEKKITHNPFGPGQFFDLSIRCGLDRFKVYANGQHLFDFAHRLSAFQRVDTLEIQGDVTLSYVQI
Procedure: (§2) All tryptophan fluorescence spectroscopy experiments were performed using CARY Eclipse Fluorescence Spectrophotometer (Varian Inc. Santa Clara, California, USA) and a 3 ml quartz cuvette. […] The temperature was maintained constant at 25 °C by an external thermostatic water circulator. To measure galectin-ligand interactions, recombinant galectin-2 at 20 µM, galectin-3 at 10 µM and galectin-4, -4N and -4C at 5 µM were allowed to equilibrate in PBS for 10–30 minutes under constant stirring before being titrated with testing carbohydrate ligand solutions. Galectin-2 was tested with increasing concentrations of LacNAc from 0 to 3.5 mM, lactose from 0 to 4.8 mM and galactose from 0 to 47.0 mM. Galectin-3 was analysed with ligands ranging from 0 to 700 µM for LacNAc, 0 to 1.25 mM for lactose and 0 to 35.5 mM for galactose whereas the inhibitor F3 was tested at concentrations ranging from 0 to 2.64 mM. […] Data from three independent experiments were analysed using nonlinear regression with ‘One Site- Specific Binding’ model (Y = Bmax * X/(KD + X) where X is the ligand concentration, Y is the fluorescence intensity, Bmax is the maximum specific binding and KD is the equilibrium binding constant) in GraphPad Prism 7.04.

[4] = target: T2, galectin-4C (residues 153–323); test: TFS of galectin-4C-ligand interaction; format: binding; conditions: galectin-4C 5 µM, PBS, 25 °C
Procedure: as §2

galectin-3 [5] = target: T1, galectin-3; test: Tryptophan fluorescence spectroscopy (TFS) of galectin-3-ligand interaction; conditions: galectin-3 10 µM, PBS, 25 °C, One site-Specific binding model, mean ± SEM, n=3
Procedure: All tryptophan fluorescence spectroscopy experiments were performed using CARY Eclipse Fluorescence Spectrophotometer (Varian Inc. Santa Clara, California, USA) and a 3 ml quartz cuvette. […] The temperature was maintained constant at 25 °C by an external thermostatic water circulator. […] Control buffer titrations to galectin solutions were performed in parallel for background determination in each experiment. Data from three independent experiments were analysed using nonlinear regression with ‘One Site- Specific Binding’ model (Y = Bmax * X/(KD + X) where X is the ligand concentration, Y is the fluorescence intensity, Bmax is the maximum specific binding and KD is the equilibrium binding constant) in GraphPad Prism 7.04.

galectin-2 [6] = target: T4, galectin-2 (Homo sapiens, UniProt P05162); test: TFS of galectin-2-ligand interaction; format: binding; conditions: galectin-2 20 µM, PBS, 25 °C, mean ± SEM, n=3
T4 construct: full length human galectin-2 (residues 1–132, UniProt code: P05162); 6xHis-SUMO (N, cleaved yes); made in house; host or cells: E. coli BL21(DE3)
T4 sequence (P05162 1-132): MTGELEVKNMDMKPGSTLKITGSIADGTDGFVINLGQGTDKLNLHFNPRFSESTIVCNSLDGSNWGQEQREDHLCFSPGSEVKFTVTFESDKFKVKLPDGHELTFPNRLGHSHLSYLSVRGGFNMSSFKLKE
Procedure: as §2

[7] = target: T5, galectin-4N (residues 1–152) (Homo sapiens, UniProt P56470); test: TFS of galectin-4N-ligand interaction; format: binding; conditions: galectin-4N 5 µM, PBS, 25 °C
T5 construct: N-terminal galectin-4 (galectin-4N, residues 1–152); His-tag (pET47b, HRV3C-cleavable) (cleaved yes); made in house; host or cells: E. coli BL21(DE3)
T5 sequence (P56470 1-152): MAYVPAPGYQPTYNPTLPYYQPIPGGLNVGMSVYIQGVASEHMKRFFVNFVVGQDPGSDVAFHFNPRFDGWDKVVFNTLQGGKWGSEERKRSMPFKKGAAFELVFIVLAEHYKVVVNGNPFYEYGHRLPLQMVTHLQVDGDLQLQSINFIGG
Procedure: as §2

galectin-2 [8] = target: T4, galectin-2; test: ITC of galectin-2-ligand interaction; format: binding; conditions: galectin-2 100 µM, PBS, 25 °C, mean ± SEM, n=3
Procedure: as §1, with “LacNAc at 2 mM (for galectin-3), 20 mM (for galectin-2) or 100 mM (for full-length and truncated galectin-4); lactose at 30 mM (for galectin-2, -4 and truncated galectin-4) or 4 mM (for galectin-3); and galactose at 20 mM (for galectin-3) or 200 mM (for galectin-2, -4 and truncated galectin-4) were used in the binding titrations.” left out

[9] = target: T5, galectin-4N (residues 1–152); test: ITC of galectin-4N-ligand interaction; format: binding; conditions: galectin-4N 100 µM, PBS, 25 °C
Procedure: as §1

galectin-4 [10] = target: T3, galectin-4; test: ITC of galectin-4-ligand interaction; format: binding; conditions: full-length galectin-4 100 µM, PBS, 25 °C
Procedure: as §1

## α-lactose
galectin-3 [1]
  Kd: 93.5 ± 9.1 µM
[2]
  Kd: 846 ± 71 µM
galectin-4 [3]
  Kd: 589 µM and ~589 µM
[4]
  Kd: 636 µM and ~635 µM
galectin-3 [5]
  Kd: 89.7 ± 15.8 µM
galectin-2 [6]
  Kd: 1300 ± 200 µM
[7]
  Kd: 451 µM and ~450 µM
galectin-2 [8]
  Kd: 960 ± 180 µM
[9]
  Kd: 908 ± 52.5 µM
galectin-4 [10]
  Kd: 738 ± 128 µM
